Assay [1] deals with T1, recombinant natural type human TNF-α (human, UniProt P01375 77-233). Put plainly: cell-based or functional assay.
Assay [2] deals with T1, recombinant natural type human TNF-α. Kind of assay: cell-based or functional assay. The source holds these as a separate data set.
Assay [3] shares this target. Kind of assay: BLI (Octet), fit value printed in the row of TNF-α 5 nM. A general note: In BLI a coated tip is dipped into the sample, and binding shifts an interference pattern.
Assay [4] shares this target. Kind of assay: BLI (Octet), fit value printed in the row of TNF-α 10 nM.
Assay [5] has the same target. Put plainly: BLI (Octet), fit value printed in the row of TNF-α 20 nM.
For assay [6] the target is unchanged. Put plainly: BLI (Octet), fit value printed in the row of TNF-α 2.5 nM.
For assay [7] the target is unchanged. Put plainly: BLI (Octet), antibody loaded on sensor, TNF-α in solution; lot 1301.
The target is the same in assay [8]. Kind of assay: competitive ELISA on coated TNF-α, competitor HRP-labeled CMAB008; experiment 1. (ELISA stands for enzyme-linked immunosorbent assay.)
Assay [9] has the same target. Kind of assay: competitive ELISA on coated TNF-α, competitor HRP-labeled CMAB008; experiment 2.
The target is the same in assay [10]. Put plainly: competitive ELISA on coated TNF-α, competitor HRP-labeled CMAB008; experiment 3.
For assay [11] the target is unchanged. Kind of assay: competitive ELISA on coated TNF-α, competitor HRP-labeled CMAB008; mean ± S of 3.
Assay [12] has the same target. Kind of assay: calculated from the competitive ELISA EC50s with the literature Ka of Remicade (10^10 M-1) as reference.

Protein sequences, listed by entry. Tags and fused reporters are not part of them. Residues count along the entry.
UniProt P01375, 77-233 limits assumed: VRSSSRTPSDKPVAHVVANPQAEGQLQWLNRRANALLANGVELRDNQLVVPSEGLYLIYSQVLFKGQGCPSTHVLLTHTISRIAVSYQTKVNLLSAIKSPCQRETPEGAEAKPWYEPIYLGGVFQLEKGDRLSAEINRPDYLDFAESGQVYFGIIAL

B1: recombinant chimeric anti-TNF-α monoclonal antibody CMAB008 (antibody, human IgG1, kappa, V domains shown)
VH: EVKLEESGGGLVQPGGSMKLSCVASGFIFSNHWMNWVRQSPEKGLEWVAEIRSKSINSATHYAESVKGRFTISRDDSKSAVYLQMTDLRTEDTGVYYCSRNYYGSTYDYWGQGTTLTVSS
VL: DILLTQSPAILSVSPGERVSFSCRASQFVGSSIHWYQQRTNGSPRLLIKYASESMSGIPSRFSGSGSGTDFTLSINTVESEDIADYYCQQSHSWPFTFGSGTNLEVKR
notes: also called CMAB008 #1301; CMA 008
For B1, the “fold increase of the median lethal dose of rh-TNF-α (from 0.46 µg/animal) with 500 µg/animal CMAB008” value in assay [1] amounted to 18.9 times. Moreover, in [2], the “EC50 (ED50) of neutralizing TNF-α killing of L929 cells, experiment 1” value was determined as 0.0166 µg/mL. The “EC50 (ED50) of neutralizing TNF-α killing of L929 cells, experiment 2” value in assay [2] worked out at 0.0174 µg/mL. Moreover, the “EC50 (ED50) of neutralizing TNF-α killing of L929 cells, experiment 3” value in [2] is 0.0162 µg/mL. Besides, the Kd in [3], in assay [4], in assay [5], in assay [6] and in assay [7] was 0.203 nM each time. Besides, the koff in assay [3], in [4], in assay [5] and in assay [6] was 1.98e-05 s⁻¹ in each case. In addition, the kon in assay [3], in assay [4], in [5] and in assay [6] was 97800 M⁻¹ s⁻¹ each time. For the same molecule, the concentration giving a half-maximal response (EC50) worked out at 0.144 µg/mL in assay [8], 0.14 µg/mL in assay [9], 0.153 µg/mL in assay [10] and 0.146 µg/mL in [11]. Besides, in assay [12], the Ka was roughly 6.8e+09 M⁻¹.

What is called Kd is the constant that tells how readily two partners part at equilibrium. One may read the koff as the rate constant with which the complex falls apart. One may read the kon as the rate constant with which the complex forms. As usually defined, the EC50 is the concentration at which the effect is half-maximal.
